Targets include GST-CaBP1 (UniProt Q9NZU7); GST-Neurocalcin-δ (UniProt P61601); GST-NCS-1 (UniProt P62166); GST-NCS-1^E120Q (UniProt P62166); GST-Hippocalcin (UniProt P84074).
Experiment in all cases: pull-down; small scale: GST fusions (1 μM) on glutathione cellulose, or calmodulin sepharose (1 μM); recombinant calcineurin 1 μM; KCl 50 mM, HEPES 20 mM pH 7.4, EGTA 5 mM, NTA 5 mM, 1 μM free Ca2+ (in Fig. 3b also without added CaCl2); 2 h at 4 °C; anti-calcineurin western blot, densitometry

Data on one substance can be found in paper PMC2258317.

On to “Purified recombinant calcineurin (complex)”, for which the fold less calcineurin bound than by calmodulin with GST-CaBP1, with GST-Neurocalcin-δ, with GST-NCS-1 and with GST-Hippocalcin was 7 fold each time. Further, the values for the fold increase in binding with 1 μM free Ca2+ against without Ca2+ in the experiment with GST-NCS-1 and in the experiment with GST-NCS-1^E120Q were 13.7 fold and 2.2 fold, respectively.
